According to PubChem BioAssay AID588832 (Broad Institute, 2011):
Only a part is listed here, and it is no random draw. Activity calls are given as the source filed them. How the calls were made is not given here.

test system: hedgehog, isoform A (Drosophila melanogaster); test: Hh protein inhibition, biochemical readout – plate reader, single concentration, primary screen (AID 588832); settings: Biochemical plate reader assay, at 30.3 µM, stronger effect = higher value;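 further: 0% = neutral control wells and 100% = positive control wells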

Structure (SMILES) | inhibition
O=C1CCN(Cc2ccccc2)CC1 | inactive: 1.61%
